The values that follow come from patent US7364881B1, “Biological process for the conversion of nitroarenes to ortho-aminophenols using recombinant E. coli strains” (dated 2008).

The chains behind the UniProt entries cited, without tags or fusion partners. Residues count along the entry.
UniProt Q01234, whole entry: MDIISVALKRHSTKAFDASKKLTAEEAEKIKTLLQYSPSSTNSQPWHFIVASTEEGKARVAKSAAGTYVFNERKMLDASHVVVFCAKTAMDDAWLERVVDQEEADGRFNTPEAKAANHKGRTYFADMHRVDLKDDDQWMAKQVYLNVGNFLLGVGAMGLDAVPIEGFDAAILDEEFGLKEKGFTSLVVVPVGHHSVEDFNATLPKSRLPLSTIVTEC
UniProt Q6DLR9, 2-227 limits assumed: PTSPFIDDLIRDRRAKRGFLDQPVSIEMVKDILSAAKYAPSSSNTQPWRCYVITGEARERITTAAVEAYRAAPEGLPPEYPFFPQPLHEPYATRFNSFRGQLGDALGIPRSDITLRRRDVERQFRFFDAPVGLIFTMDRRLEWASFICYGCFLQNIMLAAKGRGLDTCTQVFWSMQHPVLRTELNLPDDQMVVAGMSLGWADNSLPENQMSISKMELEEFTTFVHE

Only a part of the results on these compounds is given; other tests are left out.

For test [1], the target named is E. cloacae nitroreductase (Nfs1) (Enterobacter cloacae, UniProt Q01234). The test can be described thus: Reductase activity in cell extracts (initial rate of NADPH disappearance), Nfs1 expressed in E. coli JS996. To be noted: averages of duplicates, deviation <10%. How it is done:
(§1) Cells of E. coli strains carrying the recombinant plasmids were grown at 37° C. in 250 ml of 2×TY medium or 2×LB with 1% glycerol containing 100 μg/ml ampicillin in an incubator shaker until the cultures reached an A600 of 0.8. The cells were induced with 1 mM IPTG by incubating strain JS995 at 30° C. and strain JS996 at 37° C. with shaking for 16 h. The cells were harvested, washed twice in 20 mM potassium phosphate buffer, pH 8, and used directly in whole-cell transformation assays or for the preparation of cell extracts.
(§2) Cells were broken by two passages through a French pressure cell at 20,000 lb/in^2. The resulting lysate was centrifuged at 17,000×g for 20 min at 4° C., and the supernatant was used for enzyme assays. Reductase activity for various nitroaromatic compounds was determined spectrophotometrically by measuring the initial rate of NADPH disappearance. The activity of HAB mutase A was measured spectrophotometrically by monitoring the increase in absorbance at 283 nm, which indicates the formation of 2-aminophenol (2AP) from HAB.

Test [2] has as its target NB nitroreductase (NbzA) (Ectopseudomonas oleovorans, UniProt Q6DLR9). Nature of the test: Reductase activity in cell extracts (initial rate of NADPH disappearance), NbzA expressed in E. coli JS995. To be noted: averages of duplicates, deviation <10%. The protocol: as §1, §2
In test [3] the test system is host strains carrying only the vectors. The test can be described thus: Nitroreductase activity in extracts of host strains carrying only the vectors. The protocol:
as §1, §2

With `Cc1c([N+](=O)[O-])cc([N+](=O)[O-])cc1[N+](=O)[O-]`, the “Specific activity of recombinant nitroreductase Nfs1 in cell extracts” value in test [1] is on record as 11.1 μmol of NADPH oxidized min^−1 mg^−1 protein. For the same molecule, in test [2], the “Specific activity of recombinant nitroreductase NbzA in cell extracts” value was 2.6 μmol of NADPH oxidized min^−1 mg^−1 protein. The “Nitroreductase activity in the control host strain containing vector alone” value in test [3] is recorded as 0.30 U mg^−1 protein.
